Test results reported in patent publication US20230339968A1, “KRAS Gl2C INHIBITORS” (Eli Lilly and Company, priority 2019, published 2023).

Tested on: H1373 (lung) xenograft
Experiment: Anti-tumor growth activity, H1373 xenograft model
Format: in vivo, mouse
Settings: 5 mg/kg QD × 28, oral
Experimental: For xenograft models of H1373, HCC44, MiaPaca-2, SW1463, KYSE-410 and UM-UC-3, typically 5-10×10^6 cells in a 1:1 matrigel mix (0.2 mL total volume) are implanted by subcutaneous injection in hind leg of nude mice. Generally, a total of 4 mice each group are used for efficacy study. Treatment is initiated with oral administration (gavage) of testing compound or vehicle (20% captisol, 25 mM phosphate, pH2.0) in 0.2 mL volume when tumor size reaches approximately 200-300 mg. Tumor growth and body weight are monitored over time to evaluate efficacy and signs of toxicity. For EL3187 PDX model, frozen vials containing tumor fragments are thawed at 37° C. in a water bath. The tumor fragments are transferred to 50 mL Falcon tube and the ice cold DMEM medium is slowly added into the tube to a total volume of 35 mL. Then the tumor fragments are centrifuged at 130×g for 2 minutes at 4° C. and supernatant is aspirated. This washing step is repeated twice and the tumor fragments are resuspended in 10 mL DMEM for implantation into athymic nude-Foxn1nu mice (Envigo RMS, Inc., Mount Comfort, Indiana). Once tumor volumes reach 800 to 1000 mm^3, animals are sacrificed and tumors are harvested using aseptic technique. Fresh tumors are cut into 10 to 15 mm^3 fragments and placed into cold Gibco hibernate medium. The tumor fragments are subcutaneously implanted into animals with a 10 g trochar needle. […]

C=CC(=O)N1CCN2C(=O)c3cc(F)c(-c4ccc(F)c5sc(N)c(C#N)c45)c(Cl)c3OCC[C@H]2C1 [Example 35, 4-[(13aS)-10-Chloro-8-fluoro-6-oxo-2-prop-2-enoyl-1,3,4,12,13,13a-hexahydropyrazino[2,1-d][1,5]benzoxazocin-9-yl]-2-amino-7-fluoro-benzothiophene-3-carbonitrile]
tumor growth inhibition (%) or regression (−%): 97.9%
